Screens deposited in PubChem BioAssay by Broad Institute.
RAD54 inh: blocks human RAD54 Holliday junction branch migration | hit rate 0.14% among 360,000 | Q92698 | FAM/BHQ fluorescence | AID 602329 | inhibition, % at 10.4 µM;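 active = mean normalized replicate activity at least 40 and at least half of replicates scoring 40 or more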;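 also: 0% = median of neutral control wells and 100% = median of positive control wells; inhibitors cause a drop in the FAM fluorescence signal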
RAD52 anneal inh: inhibitors of human RAD52 DNA annealing. P43351. inhibition, % at 18.7 µM. AID 651710. recombinant RAD52 DNA annealing, FRET fluorescence. hit rate 0.46% among 360,000;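 active = every replicate showing at least 50% inhibition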
UUG fidelity: yeast start codon fidelity modulation; actives 0.13% (n = 350,000); activity score, % at 18.7 µM; S. cerevisiae UUG-firefly luciferase reporter, luminescence/redox ratio;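 active = replicate mean at a twofold rise or more, about +100% in these data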;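 note: firefly luciferase made from a UUG start codon reports start codon fidelity; reporter light over untreated wells divided by growth signal over untreated wells; some hits fall short of that in this replicate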
SIRT5 inh: sirtuin-5 (human) deacylase inhibition; Q9NXA8; Purified SirT5, succinyl-peptide AMC, trypsin-coupled fluorescence; inhibition, % at 15 µM; hit rate 1.1% among 330,000; in the data active = inhibition above about 15%
MLL AF4-AF9 inh: blocks AF4 peptide binding to human AF9. AlphaScreen, biotin-AF4 peptide binding to FLAG-AF9. inhibition, % at 10 µM. hit rate 0.47% among 350,000. AID 651704;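 active = every replicate reaching a set inhibition limit, whatever the replicate mean, cut at about 25% in these data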;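 also: 0% = plate neutral control median and 100% = total signal loss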
E-selectin induc: E-selectin induction on HUVECs | HUVEC E-selectin immunofluorescence imaging; normalized: neutral wells 0, TNF-alpha wells 100 | activation, % at 7.58 µM | hit rate 0.37% among 260,000;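 active = mean E-selectin-positive cell signal at least 10% of the positive control, reached in at least 60% of replicates, without over 20% cell loss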
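Read-out basis: % PE-positive cells; Test system: HUVEC primary endothelial cells; Technique: immunofluorescence imaging; Dosing: single-point compound dose.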
The depositor's hits bear a star; . = not tested or not shown; ! = not active in a repeat. Most compounds without a hit are left out; they make up all but 1.8% or so of the library.

mol	E-selectin induc	RAD54 inh	RAD52 anneal inh	UUG fidelity	MLL AF4-AF9 inh	SIRT5 inh
C[C@H](CO)N1C[C@H](C)[C@H](CN(C)Cc2ccc(C(=O)Nc3ccccc3N)cc2)Oc2ccc(NS(=O)(=O)c3cccs3)cc2CC1=O	58.8*	-6.1	-0.6	-2.5	6.9	1.5
C[C@H](CO)N1C[C@H](C)[C@@H](CN(C)Cc2ccc(-c3ccccc3)cc2)Oc2ccc(NS(=O)(=O)c3cccs3)cc2CC1=O	0.0	-2.7	32.2	-1.6	3.8	18.2*
C[C@@H]1CN([C@H](C)CO)C(=O)Cc2cc(NS(=O)(=O)c3cccs3)ccc2O[C@H]1CN(C)Cc1ccccc1	0.1	2.9	-1.1	-7.5	-4.4	4.9
CN(C)C(=O)C[C@@H]1CC[C@@H]2[C@H](COC[C@@H](O)CN2Cc2ccc(C(F)(F)F)cc2)O1	-0.1	-10.1	-0.9	-6.4	-1.8	0.5
CCOC(=O)c1ccc(NC(=S)NCCCn2ccnc2)cc1	2.7	-2.7	-10.1	-20.4	3.3	-4.1
COC(=O)c1ccc(NC(=S)NCCCn2ccnc2)cc1	.	-0.1	7.2	-10.0	0.6	20.4*
CC(C)CC#Cc1ccc2c(c1)O[C@H](CN(C)C(=O)C1CCCCC1)[C@H](C)CN([C@@H](C)CO)S2(=O)=O	-0.8	-0.3	-4.0	-11.7	0.9	21.9*
C[C@H](CO)N1C[C@H](C)[C@H](CN(C)C(=O)CC2CC2)Oc2cc(C#CC(C)(C)O)ccc2S1(=O)=O	-0.5	-0.5	-1.7	-3.3	-3.2	18.1*
CC(C)CC#Cc1ccc2c(c1)O[C@H](CN(C)C(=O)CC1CC1)[C@H](C)CN([C@@H](C)CO)S2(=O)=O	0.5	-9.3	14.8	5.9	4.4	17.7*
CC(C)CC#Cc1ccc2c(c1)O[C@@H](CN(C)C(=O)C1CCCCC1)[C@@H](C)CN([C@@H](C)CO)S2(=O)=O	-1.2	-6.1	-2.7	-21.2	3.7	0.9
C[C@H]1CN([C@@H](C)CO)S(=O)(=O)c2ccc(C#CC(C)(C)O)cc2O[C@H]1CN(C)C(=O)CC1CC1	-0.1	-8.2	10.1	-7.5	-1.4	-3.7
O=C(c1ccccc1)N1C[C@@H]2[C@H](c3ccccc31)[C@@H](CO)N2S(=O)(=O)c1ccccc1	0.4	-6.0	0.8	-0.9	-1.2	-0.5
COCCOC(=O)N1C(=O)[C@@]2(c3cc(C#CCCO)ccc31)[C@H](C(=O)N1CCN(c3ncccn3)CC1)[C@H]1C(=O)O[C@H](c3ccccc3)[C@H](c3ccccc3)N1[C@@H]2c1ccccc1OCCO	.	3.0	19.1	0.4	1.5	14.4
COCCOC(=O)N1C(=O)[C@@]2(c3cc(C#CCCO)ccc31)[C@H](c1ccccc1OCCO)N1[C@H](c3ccccc3)[C@H](c3ccccc3)OC(=O)[C@H]1[C@@H]2C(=O)N1CCN(c2ncccn2)CC1	.	0.1	13.9	7.1	-0.3	19.0*
COCCOC(=O)N1C(=O)[C@@]2(c3ccccc31)[C@H](C(=O)N1CCN(c3ncccn3)CC1)[C@H]1C(=O)O[C@H](c3ccccc3)[C@H](c3ccccc3)N1[C@@H]2c1ccccc1OCCO	.	-5.0	5.3	-15.4	0.7	15.6*
COCCOC(=O)N1C(=O)[C@@]2(c3cc(C#CCC(C(=O)OC)C(=O)OC)ccc31)[C@H](c1ccccc1OCCO)N1[C@H](c3ccccc3)[C@H](c3ccccc3)OC(=O)[C@H]1[C@@H]2C(=O)NC[C@H](O)c1ccccc1	.	0.7	6.9	23.0	-1.8	16.2*
COc1ccc2c3c(n(C)c2c1)[C@@H](CO)N(C(=O)CN1CCOCC1)CC31CCN(C(=O)CC2CC2)CC1	0.0	.	.	.	1.2	.
O=C(CC(C(=O)O)c1ccc(Cl)cc1)c1ccc(Br)cc1 (stereo not given)	0.0	-10.9	-14.7	-20.6	-3.0	17.0*
C[C@H](CO)N1C[C@H](C)[C@H](CN(C)Cc2ccc3c(c2)OCO3)Oc2ccc(NS(=O)(=O)c3ccc(F)cc3)cc2C1=O	-18.4	-3.1	4.9	3.5	-1.4	9.1
COc1ccccc1N(Cc1ccccc1)S(=O)(=O)c1cccc(C(=O)O)c1	.	.	-8.6	.	-8.2	7.2
CN(Cc1ccccc1)S(=O)(=O)c1cccc(C(=O)O)c1	.	.	8.7	.	-1.7	31.0*
N#CCC1(O)C(=O)N(Cc2ccccc2)c2ccccc21 (stereo not given)	0.0	.	-18.4	.	-0.1	22.3*
CCCC#Cc1ccc2c(c1)O[C@H](CN(C)C(=O)Nc1ccccc1F)[C@@H](C)CN([C@H](C)CO)S2(=O)=O	0.1	-5.4	10.4	.	1.7	20.7*
COc1cccc(C#Cc2ccc3c(c2)O[C@@H](CN(C)C(=O)c2ccccn2)[C@@H](C)CN([C@H](C)CO)S3(=O)=O)c1	-1.7	-6.5	-5.1	65.4	1.4	16.0*!

Ordered by count of non-hydrogen atoms (rising): 3 of the compounds above.
mol	E-selectin induc	RAD54 inh	RAD52 anneal inh	UUG fidelity	MLL AF4-AF9 inh	SIRT5 inh
COc1ccccc1N(Cc1ccccc1)S(=O)(=O)c1cccc(C(=O)O)c1	.	.	-8.6	.	-8.2	7.2
COc1ccc2c3c(n(C)c2c1)[C@@H](CO)N(C(=O)CN1CCOCC1)CC31CCN(C(=O)CC2CC2)CC1	0.0	.	.	.	1.2	.
COc1cccc(C#Cc2ccc3c(c2)O[C@@H](CN(C)C(=O)c2ccccn2)[C@@H](C)CN([C@H](C)CO)S3(=O)=O)c1	-1.7	-6.5	-5.1	65.4	1.4	16.0*!

More records
mol	E-selectin induc	RAD54 inh	RAD52 anneal inh	UUG fidelity	MLL AF4-AF9 inh	SIRT5 inh
CCCC#Cc1ccc2c(c1)O[C@@H](CN(C)C(=O)c1ccccc1F)[C@@H](C)CN([C@@H](C)CO)S2(=O)=O	-0.2	-5.6	31.4	-11.9	-0.2	16.9*
CCCC#Cc1ccc2c(c1)O[C@H](CN(C)C(=O)c1ccccc1F)[C@H](C)CN([C@H](C)CO)S2(=O)=O	0.1	-3.1	27.0	-10.5	0.9	18.0*
CC(C)CC#Cc1ccc2c(c1)O[C@H](CN(C)C(=O)c1ccccc1F)[C@@H](C)CN([C@@H](C)CO)S2(=O)=O	0.0	-3.4	-7.9	-6.2	0.5	9.0
COC(=O)[C@@H]1[C@@H](CO)[C@@H]2Cn3c(ccc(/C=C/c4ccccc4)c3=O)[C@@H]2N1C(=O)CC1CC1	1.0	-5.3	.	.	-7.9	.
COc1cccc(S(=O)(=O)N[C@@H]2CC[C@H](CCNC(=O)Nc3cc(F)ccc3F)O[C@H]2CO)c1	-0.2	-2.3	-8.4	6.2	7.5	-0.5
CCCC#Cc1ccc2c(c1)O[C@@H](CN(C)C(=O)c1cnccn1)[C@@H](C)CN([C@@H](C)CO)S2(=O)=O	0.8	1.1	1.6	-3.0	2.2	27.9*
Cc1ccc(Cn2c(O)c(N=NC(=S)Nc3ccccc3F)c3ccccc32)cc1	-0.9	.	-20.9	.	6.8	17.5*
COc1cccc(NC(=O)N2C[C@@H](O)COC[C@@H]3O[C@H](CC(=O)NC4Cc5ccccc5C4)CC[C@H]32)c1	0.0	7.8	5.0	.	-0.4	0.4
COCC(=O)Nc1ccc2c(c1)[C@H]1C[C@@H](CC(=O)NCCN3CCCCC3)O[C@H](CO)[C@H]1O2	-0.4	-6.8	20.1	34.4	-4.3	0.8
COc1ccccc1CC(=O)NNS(=O)(=O)c1ccc([N+](=O)[O-])cc1	-0.5	4.4	-13.2	-28.1	-1.4	24.7*
C[C@@H]1CCCCO[C@@H](CN(C)C(=O)Cc2ccccc2)[C@H](C)CN([C@H](C)CO)C(=O)c2cc(NC(=O)CCC(F)(F)F)ccc2O1	.	-4.9	.	8.0	.	.
